Assay results as given in ChEMBL document CHEMBL1129794, “Synthesis and evaluation of 2-[(5-methylbenz-1-ox-4-azin-6-yl)imino]imidazoline, a potent, peripherally acting alpha 2 adrenoceptor agonist” (J Med Chem, 1996).

The chains behind the UniProt entries cited, without tags or fusion partners. Where a name states a change or a piece, a line headed by the entry shows the natural chain unless it says otherwise.
UniProt P08913: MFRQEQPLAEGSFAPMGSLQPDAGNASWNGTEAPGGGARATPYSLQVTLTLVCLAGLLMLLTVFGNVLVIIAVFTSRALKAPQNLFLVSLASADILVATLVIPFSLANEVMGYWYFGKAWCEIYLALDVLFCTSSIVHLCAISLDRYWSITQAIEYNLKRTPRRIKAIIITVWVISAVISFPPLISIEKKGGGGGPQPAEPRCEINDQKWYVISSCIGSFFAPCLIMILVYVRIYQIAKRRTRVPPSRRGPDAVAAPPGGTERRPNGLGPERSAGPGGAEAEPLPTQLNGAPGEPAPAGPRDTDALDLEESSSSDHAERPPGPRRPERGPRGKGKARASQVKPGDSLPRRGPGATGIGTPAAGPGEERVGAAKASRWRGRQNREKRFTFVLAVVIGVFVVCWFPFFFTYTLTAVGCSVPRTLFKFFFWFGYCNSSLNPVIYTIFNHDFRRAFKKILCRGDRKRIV
UniProt P18825: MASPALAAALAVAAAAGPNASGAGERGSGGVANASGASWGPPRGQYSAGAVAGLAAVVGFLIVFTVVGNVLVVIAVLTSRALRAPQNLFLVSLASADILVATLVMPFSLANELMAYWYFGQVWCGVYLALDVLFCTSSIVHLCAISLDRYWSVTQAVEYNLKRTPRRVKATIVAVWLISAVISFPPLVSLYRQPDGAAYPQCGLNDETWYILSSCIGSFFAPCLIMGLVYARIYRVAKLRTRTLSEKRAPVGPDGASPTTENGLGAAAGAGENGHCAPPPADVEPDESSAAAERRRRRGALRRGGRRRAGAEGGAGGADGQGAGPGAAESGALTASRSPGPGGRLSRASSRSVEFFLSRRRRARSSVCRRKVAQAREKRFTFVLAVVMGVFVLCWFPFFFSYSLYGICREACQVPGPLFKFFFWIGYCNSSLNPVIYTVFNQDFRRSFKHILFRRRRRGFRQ
UniProt P18089: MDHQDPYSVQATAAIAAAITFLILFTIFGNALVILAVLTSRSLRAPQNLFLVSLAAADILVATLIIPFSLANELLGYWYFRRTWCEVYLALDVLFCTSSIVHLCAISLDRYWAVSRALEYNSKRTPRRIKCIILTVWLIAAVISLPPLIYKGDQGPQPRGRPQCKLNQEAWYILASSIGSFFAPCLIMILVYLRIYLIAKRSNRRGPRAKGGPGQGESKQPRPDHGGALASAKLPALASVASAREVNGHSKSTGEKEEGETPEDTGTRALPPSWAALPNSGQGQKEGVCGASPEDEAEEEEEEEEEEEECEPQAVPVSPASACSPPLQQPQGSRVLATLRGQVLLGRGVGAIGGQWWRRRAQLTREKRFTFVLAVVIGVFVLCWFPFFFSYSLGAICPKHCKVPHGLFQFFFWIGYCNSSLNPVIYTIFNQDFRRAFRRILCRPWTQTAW

Molecular target: Adrenergic receptor alpha-2 (Homo sapiens, UniProt P08913+P18825+P18089)
Type: functional, Oryctolagus cuniculus

EC50: 1.9 nM
Compound: Nc1cc(Cl)c(N=C2NCCN2)c(Cl)c1 [APRACLONIDINE]
